Tested on: parental CHO cells
Assay: cAMP levels in parental CHO cells (counter-screen)
Assay type: cell-based
Conditions: concentrations up to 100 μM

SMILES: Cc1ccc(-c2noc(-c3ccc(NC(=O)C4CC(=O)N(Cc5ccccc5)C4)cc3)n2)cc1 (stereo not shown) [RLX-1, 1-Benzyl-N-{4-[3-(4-methylphenyl)-1,2,4-oxadiazol-5-yl]phenyl}-5-oxopyrrolidine-3-carboxamide]
- effects on promotion or inhibition of cAMP levels: no effects
